Results from patent US20230192660A1 (priority 2020, published 2023).
pIC50: −log10 of the molar value.

Chains of the proteins cited; added tags and fusions are not shown. Residues count along the entry.
UniProt P07711, 114-333 limits assumed: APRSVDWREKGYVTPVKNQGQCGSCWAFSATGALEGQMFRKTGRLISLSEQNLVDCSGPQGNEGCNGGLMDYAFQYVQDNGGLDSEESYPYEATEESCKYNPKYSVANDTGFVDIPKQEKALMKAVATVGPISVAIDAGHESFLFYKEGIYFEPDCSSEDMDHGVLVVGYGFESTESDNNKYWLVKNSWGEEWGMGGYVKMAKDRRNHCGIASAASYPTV

Columns and labels:
Human Cathepsin L = Human Cathepsin L (Homo sapiens, UniProt P07711); conditions: read-out: IC50 HCathepsin L; 0.01 ng/uL Cathepsin L, pH 5.5, 2 mM DTT

Compound: CC(C)(C)NC(=O)N[C@H](C(=O)N1C[C@@H]2CCC[C@@H]2[C@H]1C(=O)N[C@@H](C[C@@H]1CCNC1=O)C(=O)C(N)=O)C(C)(C)C
- CC50 (A549-ACE2 cells): > 100 µM
- CC50 (Huh7 cells): > 100 µM
- pIC50 (Human Cathepsin L): 4.42

Compound: CC(C)(C)C(=O)N[C@H](C(=O)N1C[C@H]2[C@@H]([C@H]1C(=O)N[C@@H](C[C@@H]1CCNC1=O)C(=O)C(N)=O)C2(C)C)C(C)(C)C
- CC50 (A549-ACE2 cells): > 100 µM
- CC50 (Huh7 cells): > 100 µM

Compound: CC1(C)[C@@H]2[C@@H](C(=O)N[C@@H](C[C@@H]3CCNC3=O)C(=O)C(N)=O)N(C(=O)OCc3ccccc3)C[C@@H]21
- CC50 (A549-ACE2 cells): > 100 µM
- CC50 (Huh7 cells): > 100 µM
- Caco-2 Permeability Papp A-B (Caco-2; A-B): <0.2 10-6 cm/s
- Caco-2 Permeability Papp B-A (Caco-2; B-A): 1.3 10-6 cm/s
- pIC50 (Human Cathepsin L): 5.89
